From patent US20090131468A1, “Bis-(Sulfonylamino) Derivatives in Therapy 065” (AstraZeneca AB, priority 2007, published 2009)

Chains of the proteins cited; added tags and fusions are not shown.
UniProt O14684, whole entry: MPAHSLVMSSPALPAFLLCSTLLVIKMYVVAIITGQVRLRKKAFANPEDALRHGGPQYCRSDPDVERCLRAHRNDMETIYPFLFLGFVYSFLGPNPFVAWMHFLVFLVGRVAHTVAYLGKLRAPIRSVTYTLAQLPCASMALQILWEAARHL

Target: human mPGES-1 (Homo sapiens, UniProt O14684)
Assay: Microsomal prostaglandin E synthase biochemical assay
Details: microsome preparation containing human mPGES-1; PGH2 10.8 μM, GSH 2.5 mM, pH 6.8; PGE2 quantified by HTRF; average of at least n=2

Compound `Cc1nc(-c2ccc3c(c2)CCO3)sc1C(=O)NS(=O)(=O)c1ccccc1S(N)(=O)=O` has an IC50 of 140 nM.
